Values quoted from earlier work in US20100158973A1 (HADASIT MEDICAL RESEARCH SERVICES & DEVELOPMENT LlIMITED, priority 2006, published 2010).

Sequences of proteins named here, by UniProt entry; tags and fusion partners are left off.
UniProt P34972, whole entry: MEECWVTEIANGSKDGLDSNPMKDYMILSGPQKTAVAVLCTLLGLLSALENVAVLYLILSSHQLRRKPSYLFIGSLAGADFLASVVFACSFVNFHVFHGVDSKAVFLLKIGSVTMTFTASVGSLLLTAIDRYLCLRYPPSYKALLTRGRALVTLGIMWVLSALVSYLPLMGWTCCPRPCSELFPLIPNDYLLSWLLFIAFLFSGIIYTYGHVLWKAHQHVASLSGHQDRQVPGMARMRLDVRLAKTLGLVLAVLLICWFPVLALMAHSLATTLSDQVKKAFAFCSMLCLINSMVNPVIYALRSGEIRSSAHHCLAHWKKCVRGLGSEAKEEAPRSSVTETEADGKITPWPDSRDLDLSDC

Target: CB2 receptors (Homo sapiens, UniProt P34972)
Conditions: literature reference 10; cited from earlier work

In the case of Cannabidiol [CBD], the “binding to CB2 receptors” value is listed as “binds very weakly”.
